Target: WT β-cHMM2.0 (human β-cardiac heavy meromyosin with the S2Tag inserted in the S2 domain) (human | chicken)
Experiment: three-bead optical trap; WT-cHMM2.0 held on nitrocellulose-coated pedestal beads through mAb 10F12.3; actin filament dumbbell between two optically trapped beads; 1 uM MgATP; trapping buffer 25 mM KCl, 60 mM MOPS pH 7.0, 1 mM DTT, 1 mM MgCl2, 1 mM EGTA; single-molecule interactions found by a decrease in bead covariance

k detach (actin detachment rate at 1 uM ATP): 5.9 s⁻¹
Substance: rabbit skeletal muscle actin filaments (from UniProt P68135 1-377) (natural protein)

Reference: article PMC12597268
